{"source": "patent US20050187239A1", "about": "(priority 2002, published 2005)", "test_system": "gastrointestinal transit in the mouse", "conditions": "each drug separately", "data": [{"smiles": "CN1CC[C@]23c4c5ccc(O)c4O[C@H]2[C@@H](O)C=C[C@H]3[C@H]1C5", "note": "[Morphine, morphine]", "values": [{"measurement": "inhibition of gastrointestinal transit, drug separately", "value": "inhibit gastrointestinal transit"}]}]}
